The record followed here is patent US8304418B2, “Pyrazolopyrimidinone kinase inhibitor” (Agennix AG, priority 2007, dated 2012).

A short description of the series: Solubility of the maleic acid salt. Type of series: physicochemical. The procedure: 6-(3-Hydroxy-4-(pyrrolidinomethyl)phenylmethyl)-3-isopropyl-1-(3,5-dichloropyridin-4-yl)-pyrazolo[3,4-d]pyrimidin-4-one (as free base, see Example B.7) was dissolved in isopropyl alcohol at 70° C., and a solution of maleic acid (1.05 equiv.) in isopropyl alcohol was added. The reaction mixture was stirred at 70° C. for 20 minutes, then cooled to RT overnight and filtered. The resulting solid was added to H2O, the slurry stirred for 24 hours at RT and filtered. Melting point=209° C.

As usually defined, the solubility is how much of the substance goes into solution per volume. Take “6-(3-Hydroxy-4-(pyrrolidinomethyl)phenylmethyl)-3-isopropyl-1-(3,5-dichloropyridin-4-yl)-pyrazolo[3,4-d]pyrimidin-4-one (Maleic Acid Salt) [Example B.8]”: the solubility was 2.5 µg/mL.
